One compound from ChEMBL document CHEMBL2169842, “Structure-activity relationship in the antitumor activity of 6-, 8- or 6,8-substituted 3-benzylamino-β-carboline derivatives” (Bioorg Med Chem Lett, 2012) can be followed below.

The nature of the test: Selectivity ratio of IKK over CK2.

As for `Clc1cc(Cl)c2[nH]c3cnccc3c2c1`, the Ratio is greater than 20.
